# From US10610564B2, “IRGM and precision autophagy controls for antimicrobial and inflammatory disease states and methods of detection of autophagy” (STC.UNM, priority 2015, dated 2020)
# System: autophagy
# Assay: Autophagy assays identifying autophagy modulators
# Format: cell-based
compound,measurement,value
Oc1c(Cl)cc(Cl)c(Cl)c1Cc1c(O)c(Cl)cc(Cl)c1Cl [hexachlorophene],activity as autophagy modulator,agonists or inducers of autophagy
